Data as given in PubChem BioAssay AID1457 (National Center for Advancing Translational Sciences (NCATS), 2008).
This is a selection; strong and weak results do not stand in their true shares. Calls of active or inactive are those of the source. Calls come from the whole dose curve; as a rule, active = well fitted inhibition curve with a large enough effect; inconclusive = small, poorly fitted or top-dose-only effect; inactive = no such curve, though single readings can be large or run the other way.

Assay: qHTS Assay for Identifying the Cell-Membrane Permeable IMPase Inhibitors: Potentiation with Lithium;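 note: IP1 builds up when IMPase is blocked and the TR-FRET signal falls; plate controls were basal vehicle for no effect and high inhibitor control for full effect; nearly all actives have a fitted effect of over 50% in size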
Conditions: CHO-M1 cells, IP1 TR-FRET (IP-One), carbachol + lithium; at 59.4 µM (top of the series) unless noted

SMILES | activity, negative = IMPase inhibition
OCCSCCO | inactive: 26.5%
COc1ccccc1OP(C)(=O)Nc1c(C)n(C)n(-c2ccccc2)c1=O (stereo unspecified) | inactive: 0.348% [at 38.3 µM]
CP(=O)(Nc1ccc(Cl)cc1)Oc1ccc(F)cc1 (stereo unspecified) | inactive: 10.9% [at 38.3 µM]
COc1ccccc1OP(C)(=O)Nc1ccccc1Br (stereo unspecified) | inactive: 8.96%
CC(C)(C)c1ccc(OP(C)(=O)O)cc1 | inactive: 17.7% [at 38.3 µM]
CN(C)C(=O)c1c([N+](=O)[O-])cc([N+](=O)[O-])cc1[N+](=O)[O-] | inactive: 9.59%
CP(=O)(OC12CC3CC(CC(C3)C1)C2)OC12CC3CC(CC(C3)C1)C2 | inactive: 3.09% [at 38.3 µM]
CCOC(=O)c1ccc(NP(C)(=O)Oc2ccc(Cl)cc2)cc1 (stereo unspecified) | inactive: 0.646%
C/C1=C2N=C(/C=C3N=C(/C(C)=C4\[N-][C@@](C)([C@H]5N=C1[C@@](C)(CCC(=O)NC[C@H](C)OP(=O)([O-])O[C@@H]1[C@H](O)[C@H](n6cnc7cc(C)c(C)cc76)O[C@@H]1CO)[C@@H]5CC(N)=O)[C@](C)(CC(N)=O)[C@H]4CCC(N)=O)[C@@](C)(CC(N)=O)[C@@H]\3CCC(N)=O)C(C)(C)[C@@H]/2CCC(N)=O.[C-]#N.[Co+3] | inactive: -6.12%
Cc1cc(C)cc(OP(C)(=O)Nc2cccc(C(F)(F)F)c2)c1 (stereo unspecified) | inactive: 5.86%
COc1ccc(OP(C)(=O)Nc2ccccc2Br)cc1 (stereo unspecified) | inactive: 2.26%
Cc1nc2ccc3ccccc3c2o1.O=[N+]([O-])c1cc([N+](=O)[O-])c(O)c([N+](=O)[O-])c1 | inactive: 12.7% [at 38.3 µM]
CP(=O)(Nc1ccc(Cl)cc1Cl)Oc1ccccc1 (stereo unspecified) | inactive: -1.36%
CP(=O)(OCCOc1ccccc1)OCCOc1ccccc1 | inactive: 8.63%
CN(C)CCOC(=O)C(O)(c1ccccc1)C1CCCC1 (stereo unspecified) | inactive: 42.7% [at 38.3 µM]
COc1ccc(OP(C)(=O)Nc2ccccn2)cc1 (stereo unspecified) | inactive: 0.188% [at 38.3 µM]
Cc1c(NP(C)(=O)Oc2ccc(C(C)C)cc2)c(=O)n(-c2ccccc2)n1C (stereo unspecified) | inactive: 4.24% [at 38.3 µM]
O=[N+]([O-])c1cc([N+](=O)[O-])c(Nc2ccccn2)c([N+](=O)[O-])c1 | inactive: 4.64%
CCc1ccc(OP(C)(=O)O)cc1 | inactive: -14.9% [at 38.3 µM]
COc1ccccc1OP(C)(=O)Nc1ccc(C)cc1C (stereo unspecified) | inactive: -4.12% [at 38.3 µM]
CP(=O)(Nc1ccccn1)Oc1ccccc1 (stereo unspecified) | inactive: 19.2% [at 38.3 µM]
